Source: patent publication US9260483B2, “Triazacyclononane-based phosphinate ligand and its use for molecular imaging” (TECHNISCHE UNIVERSITÄT MÜNCHEN, priority 2011, dated 2016)

Tested on: mice bearing M21/M21L human melanoma xenografts (integrin expression)
Assay: PET imaging
Settings: mice with tumor xenografts

## N=C(N)NCCC[C@@H]1NC(=O)[C@H](CCCCNC(=O)CCOCCOCCOCCOCCNC(=O)CCP(=O)(O)CN2CCN(CP(=O)(O)CCC(=O)NCCOCCOCCOCCOCCC(=O)NCCCC[C@@H]3NC(=O)[C@H](Cc4ccccc4)NC(=O)[C@H](CC(=O)O)NC(=O)CNC(=O)[C@H](CCCNC(=N)N)NC3=O)CCN(CP(=O)(O)CCC(=O)NCCOCCOCCOCCOCCC(=O)NCCCC[C@@H]3NC(=O)[C@@H](Cc4ccccc4)NC(=O)[C@@H](CC(=O)O)NC(=O)CNC(=O)[C@@H](CCCNC(=N)N)NC3=O)CC2)NC(=O)[C@H](Cc2ccccc2)NC(=O)[C@H](CC(=O)O)NC(=O)CNC1=O [Compound R3PEG4P9]
  suitability of the tracer for imaging of integrin expression (biodistribution and PET imaging): suitability of the tracer for imaging of integrin expression
